{"source": "patent US20220362299A1", "about": "“ENGINEERED NATURAL KILLER CELLS AND METHODS FOR USING THE SAME IN IMMUNOTHERAPY AND AUTOPHAGY INHIBITON TECHNIQUES” (Purdue Research Foundation, priority 2019, published 2022)", "key": {"GBM43-Luc cells": {"system": "GBM43-Luc cells", "test": "Orthotopic GBM43 (Luc) xenograft model", "type": "in vivo, NSG mice", "settings": "CQ systemic, NK cells intracranial", "procedure": "Additionally, orthotopic GBM xenografts were generated using NSG mice as previously described. Briefly, on day 0, the GBM43 (Luc) cells (1×10^5) were stereotactically implanted into the right forebrain through a digitalized stereotactic delivery system. […] CD73.mCAR-pNK cells were administered once a week for three weeks. Tumor volumes were monitored and recorded using the Spectral Ami Optical imaging system. Body weights of the mice were also recorded during the treatment period. At the end of the treatment, the mice were sacrificed and whole brain tissues from each mouse were harvested for adenosine measurement and IHC/IF analyses.\nImmunohistochemistry (IHC) and immunofluorescence (IF) staining were carried out at the Histology Research Laboratory at the Purdue University College of Veterinary Medicine (West Lafayette, Ind.). […]\nFor intracranial GBM xenografts, the NK cells in tumors were detected through the staining using human NKp46/NCR1 antibody. CCL5 and CXCL10 expression in the tumors were detected through the staining using human CCL5/RANTES antibody and CXCL10 antibody, respectively. CD73 expression in the tumors was detected through the staining using human CD73 antibody.\nIn addition to the foregoing, intratumoral adenosine concentrations were also assessed. […] Adenosine concentrations were determined using an Adenosine Assay Kit according to the manufacturer's directions. […]"}, "GBM": {"system": "GBM", "settings": "chronic administration; cited from earlier work"}}}
{"substance": "Chloroquine diphosphate salt [CQ]", "values": [{"measurement": "CQ-dependent toxicity in treated groups", "setting": "GBM43-Luc cells", "result": "no observable CQ-dependent toxicity"}, {"measurement": "clinical safety and tolerability", "setting": "GBM", "result": "clinically safe and well-tolerated"}]}
